# Where two headings read alike, the source gives them in different places.
# Test system: ARPE-19 cells
# Type: cell-based
# Method: Cell morphology was visualized using light microscopy. Cell morphology observation using light microscopy permits determination of (i) cell number and density and (ii) whether or not cells in contact with an excipient agent display modified phenotype compared to a non-treated population of cells.
# Cell morphology was analyzed in parallel by semi-quantitative scoring ranging from 5 to 1, from basal to lethal phenotype respectively, as shown in FIG. 23.
# More specifically, cells were removed from an incubator for examination. Morphological shape of cells was visualized using a light microscope and CCD camera. Every 3 wells of a given concentration was observed through image analysis software. Then, a representative photograph describing the average appearance of cells was saved. The supernatant was either, kept for further predefined experiments to perform, or removed using vacuum-pump.
# Resulting semi-quantitative scoring is represented as a function of time course and dose response. Score 5 : wild type phenotype of non-treated cells, 100% confluent adherent cells. This phenotype very much vary following post-seeding time. For example, at confluence ARPE-19 cells at 1 day appear well defined with visible outer membrane and dark grey cytoplasm. After 3 days of confluence, limits between cells become less visible and cells adopt a more hexagonal shape and constitute an epithelium-like uniform dense structure. Score 4: density <100%. Cell shape has changed, some spaces are present between cells, few cells possibly detached. Score 3: 80% <Cell density <40%. Spaces are sometimes present among cells, areas appears confluent while in others, cells detached. General cell shape starts showing non negligible alterations. Score 2: Cell density <50%. Cells adopt exclusively stressed appearance, presence of mass dead floating cells. Score 1: Cell density <10%. Presence of almost exclusively dead cells.
# Based on quotation, each condition of the applied compound was given a score which allow to a morphology evolution profile to be prepared, ie. cell morphology as a function of compound concentration and time of exposure. […]
substance,measurement,setting,value
hydroxypropyl gamma-cyclodextrin [Cavasol],"Cell morphology score (5 to 1), Mean","0.05% excipient, 24 hours",5.0
same,"Cell morphology score, experiment 1","0.05% excipient, 24 hours","5 (Score 5 : wild type phenotype of non-treated cells, 100% confluent adherent cells)"
same,"Cell morphology score, experiment 2","0.05% excipient, 24 hours","5 (Score 5 : wild type phenotype of non-treated cells, 100% confluent adherent cells)"
same,"Cell morphology score, experiment 3","0.05% excipient, 24 hours","5 (Score 5 : wild type phenotype of non-treated cells, 100% confluent adherent cells)"
same,"Cell morphology score (5 to 1), Mean","0.05% excipient, 48 hours",5.0
same,"Cell morphology score, experiment 1","0.05% excipient, 48 hours","5 (Score 5 : wild type phenotype of non-treated cells, 100% confluent adherent cells)"
same,"Cell morphology score, experiment 2","0.05% excipient, 48 hours","5 (Score 5 : wild type phenotype of non-treated cells, 100% confluent adherent cells)"
same,"Cell morphology score, experiment 3","0.05% excipient, 48 hours","5 (Score 5 : wild type phenotype of non-treated cells, 100% confluent adherent cells)"
same,"Cell morphology score (5 to 1), Mean","0.05% excipient, 72 hours",5.0
same,"Cell morphology score, experiment 1","0.05% excipient, 72 hours","5 (Score 5 : wild type phenotype of non-treated cells, 100% confluent adherent cells)"
same,"Cell morphology score, experiment 2","0.05% excipient, 72 hours","5 (Score 5 : wild type phenotype of non-treated cells, 100% confluent adherent cells)"
same,"Cell morphology score, experiment 3","0.05% excipient, 72 hours","5 (Score 5 : wild type phenotype of non-treated cells, 100% confluent adherent cells)"
same,"Cell morphology score (5 to 1), Mean","0.1% excipient, 24 hours",5.0
same,"Cell morphology score, experiment 1","0.1% excipient, 24 hours","5 (Score 5 : wild type phenotype of non-treated cells, 100% confluent adherent cells)"
same,"Cell morphology score, experiment 2","0.1% excipient, 24 hours","5 (Score 5 : wild type phenotype of non-treated cells, 100% confluent adherent cells)"
same,"Cell morphology score, experiment 3","0.1% excipient, 24 hours","5 (Score 5 : wild type phenotype of non-treated cells, 100% confluent adherent cells)"
same,"Cell morphology score (5 to 1), Mean","0.1% excipient, 48 hours",5.0
same,"Cell morphology score, experiment 1","0.1% excipient, 48 hours","5 (Score 5 : wild type phenotype of non-treated cells, 100% confluent adherent cells)"
same,"Cell morphology score, experiment 2","0.1% excipient, 48 hours","5 (Score 5 : wild type phenotype of non-treated cells, 100% confluent adherent cells)"
same,"Cell morphology score, experiment 3","0.1% excipient, 48 hours","5 (Score 5 : wild type phenotype of non-treated cells, 100% confluent adherent cells)"
same,"Cell morphology score (5 to 1), Mean","0.1% excipient, 72 hours",4.7
same,"Cell morphology score, experiment 1","0.1% excipient, 72 hours","5 (Score 5 : wild type phenotype of non-treated cells, 100% confluent adherent cells)"
same,"Cell morphology score, experiment 2","0.1% excipient, 72 hours","5 (Score 5 : wild type phenotype of non-treated cells, 100% confluent adherent cells)"
same,"Cell morphology score, experiment 3","0.1% excipient, 72 hours",4 (Score 4: density <100%)
same,"Cell morphology score (5 to 1), Mean","0.5% excipient, 24 hours",5.0
same,"Cell morphology score, experiment 1","0.5% excipient, 24 hours","5 (Score 5 : wild type phenotype of non-treated cells, 100% confluent adherent cells)"
same,"Cell morphology score, experiment 2","0.5% excipient, 24 hours","5 (Score 5 : wild type phenotype of non-treated cells, 100% confluent adherent cells)"
same,"Cell morphology score, experiment 3","0.5% excipient, 24 hours","5 (Score 5 : wild type phenotype of non-treated cells, 100% confluent adherent cells)"
same,"Cell morphology score (5 to 1), Mean","0.5% excipient, 48 hours",4.7
same,"Cell morphology score, experiment 1","0.5% excipient, 48 hours","5 (Score 5 : wild type phenotype of non-treated cells, 100% confluent adherent cells)"
same,"Cell morphology score, experiment 2","0.5% excipient, 48 hours","5 (Score 5 : wild type phenotype of non-treated cells, 100% confluent adherent cells)"
same,"Cell morphology score, experiment 3","0.5% excipient, 48 hours",4 (Score 4: density <100%)
same,"Cell morphology score (5 to 1), Mean","0.5% excipient, 72 hours",4.3
same,"Cell morphology score, experiment 1","0.5% excipient, 72 hours","5 (Score 5 : wild type phenotype of non-treated cells, 100% confluent adherent cells)"
same,"Cell morphology score, experiment 2","0.5% excipient, 72 hours","5 (Score 5 : wild type phenotype of non-treated cells, 100% confluent adherent cells)"
same,"Cell morphology score, experiment 3","0.5% excipient, 72 hours",3 (Score 3: 80% <Cell density <40%)
same,"Cell morphology score (5 to 1), Mean","1.0% excipient, 24 hours",5.0
same,"Cell morphology score, experiment 1","1.0% excipient, 24 hours","5 (Score 5 : wild type phenotype of non-treated cells, 100% confluent adherent cells)"
same,"Cell morphology score, experiment 2","1.0% excipient, 24 hours","5 (Score 5 : wild type phenotype of non-treated cells, 100% confluent adherent cells)"
same,"Cell morphology score, experiment 3","1.0% excipient, 24 hours","5 (Score 5 : wild type phenotype of non-treated cells, 100% confluent adherent cells)"
same,"Cell morphology score (5 to 1), Mean","1.0% excipient, 48 hours",4.7
same,"Cell morphology score, experiment 1","1.0% excipient, 48 hours","5 (Score 5 : wild type phenotype of non-treated cells, 100% confluent adherent cells)"
same,"Cell morphology score, experiment 2","1.0% excipient, 48 hours","5 (Score 5 : wild type phenotype of non-treated cells, 100% confluent adherent cells)"
same,"Cell morphology score, experiment 3","1.0% excipient, 48 hours",4 (Score 4: density <100%)
same,"Cell morphology score (5 to 1), Mean","1.0% excipient, 72 hours",3.7
same,"Cell morphology score, experiment 1","1.0% excipient, 72 hours","5 (Score 5 : wild type phenotype of non-treated cells, 100% confluent adherent cells)"
same,"Cell morphology score, experiment 2","1.0% excipient, 72 hours","5 (Score 5 : wild type phenotype of non-treated cells, 100% confluent adherent cells)"
same,"Cell morphology score, experiment 3","1.0% excipient, 72 hours",1 (Score 1: Cell density <10%)
same,"Cell morphology score (5 to 1), Mean","5.0% excipient, 24 hours",4.3
same,"Cell morphology score, experiment 1","5.0% excipient, 24 hours","5 (Score 5 : wild type phenotype of non-treated cells, 100% confluent adherent cells)"
same,"Cell morphology score, experiment 2","5.0% excipient, 24 hours","5 (Score 5 : wild type phenotype of non-treated cells, 100% confluent adherent cells)"
same,"Cell morphology score, experiment 3","5.0% excipient, 24 hours",3 (Score 3: 80% <Cell density <40%)
same,"Cell morphology score (5 to 1), Mean","5.0% excipient, 48 hours",4.7
same,"Cell morphology score, experiment 1","5.0% excipient, 48 hours","5 (Score 5 : wild type phenotype of non-treated cells, 100% confluent adherent cells)"
same,"Cell morphology score, experiment 2","5.0% excipient, 48 hours","5 (Score 5 : wild type phenotype of non-treated cells, 100% confluent adherent cells)"
same,"Cell morphology score, experiment 3","5.0% excipient, 48 hours",4 (Score 4: density <100%)
same,"Cell morphology score (5 to 1), Mean","5.0% excipient, 72 hours",3.3
same,"Cell morphology score, experiment 1","5.0% excipient, 72 hours","5 (Score 5 : wild type phenotype of non-treated cells, 100% confluent adherent cells)"
same,"Cell morphology score, experiment 2","5.0% excipient, 72 hours",4 (Score 4: density <100%)
same,"Cell morphology score, experiment 3","5.0% excipient, 72 hours",1 (Score 1: Cell density <10%)
same,"Cell morphology score (5 to 1), Mean","10.0% excipient, 24 hours",4.3
same,"Cell morphology score, experiment 1","10.0% excipient, 24 hours","5 (Score 5 : wild type phenotype of non-treated cells, 100% confluent adherent cells)"
same,"Cell morphology score, experiment 2","10.0% excipient, 24 hours","5 (Score 5 : wild type phenotype of non-treated cells, 100% confluent adherent cells)"
same,"Cell morphology score, experiment 3","10.0% excipient, 24 hours",3 (Score 3: 80% <Cell density <40%)
same,"Cell morphology score (5 to 1), Mean","10.0% excipient, 48 hours",3.3
same,"Cell morphology score, experiment 1","10.0% excipient, 48 hours","5 (Score 5 : wild type phenotype of non-treated cells, 100% confluent adherent cells)"
same,"Cell morphology score, experiment 2","10.0% excipient, 48 hours",4 (Score 4: density <100%)
same,"Cell morphology score, experiment 3","10.0% excipient, 48 hours",1 (Score 1: Cell density <10%)
same,"Cell morphology score (5 to 1), Mean","10.0% excipient, 72 hours",3.0
same,"Cell morphology score, experiment 1","10.0% excipient, 72 hours",4 (Score 4: density <100%)
same,"Cell morphology score, experiment 2","10.0% excipient, 72 hours",4 (Score 4: density <100%)
same,"Cell morphology score, experiment 3","10.0% excipient, 72 hours",1 (Score 1: Cell density <10%)

# Reference: US20050250737A1, “Therapeutic ophthalmic compositions containing retinal friendly excipients and related methods” (Allergan, Inc., priority 2003, published 2005)
